Literature values as cited in publication PMC2957478 (Bioorganic & medicinal chemistry letters, 2009).

By UniProt entry, the sequences of proteins in these tests, tags left out. Residues count along the entry.
UniProt P05121, 24-402, species assumed: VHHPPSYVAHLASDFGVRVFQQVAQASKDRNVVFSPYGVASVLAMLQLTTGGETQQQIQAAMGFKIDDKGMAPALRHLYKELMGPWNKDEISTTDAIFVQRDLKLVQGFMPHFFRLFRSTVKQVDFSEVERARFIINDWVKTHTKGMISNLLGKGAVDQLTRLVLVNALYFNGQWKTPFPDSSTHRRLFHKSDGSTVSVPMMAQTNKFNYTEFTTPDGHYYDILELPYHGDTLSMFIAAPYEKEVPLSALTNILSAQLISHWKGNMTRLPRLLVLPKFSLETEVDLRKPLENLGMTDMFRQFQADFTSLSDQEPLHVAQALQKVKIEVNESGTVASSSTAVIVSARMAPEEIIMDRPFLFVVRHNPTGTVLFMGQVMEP

Biological target: PAI-1 (Homo sapiens, UniProt P05121)
Conditions: cited from earlier work

O=C(O)C(=O)c1cn(Cc2ccccc2)c2ccc(-c3ccc(OC(F)(F)F)cc3)cc12 [tiplaxtinin]
reported IC50 against PAI-1 (in words): low micromolar range
IC50 (read-out: PAI-1 IC50 of tiplaxtinin): 9.7 µM
